Our source for the OD 405 nm values is patent publication US20170360875A1 (priority 2014, published 2017).

The chains behind the UniProt entries cited, without tags or fusion partners. Residues count along the entry.
UniProt P00433, 31-338: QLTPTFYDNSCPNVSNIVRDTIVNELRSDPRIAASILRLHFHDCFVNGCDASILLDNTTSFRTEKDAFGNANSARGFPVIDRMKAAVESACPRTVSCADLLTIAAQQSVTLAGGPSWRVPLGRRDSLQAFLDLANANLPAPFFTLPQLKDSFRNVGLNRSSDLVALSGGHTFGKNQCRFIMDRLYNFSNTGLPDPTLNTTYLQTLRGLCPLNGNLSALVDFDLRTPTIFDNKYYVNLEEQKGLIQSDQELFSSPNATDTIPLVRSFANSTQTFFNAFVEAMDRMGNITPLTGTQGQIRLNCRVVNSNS

The target in the test is preformed immune complex of peroxidase-rabbit anti-peroxidase IgG (PAP complex) (horseradish) (UniProt P00433). As to the kind of experiment: reverse ELISA; PAP IC pre-incubated with soluble human C1q, then on C1q-coated plate; residual OD, lower = more inhibition. (In an ELISA, binding on a coated surface is turned into a signal by an enzyme label.)

Substance “human C1q (Quidel Corp.) (from UniProt P02745 23-245; P02746 28-253; P02747 29-245)” yielded an OD 405 nm of 0.337 OD 405 nm.
